Measured values published in article PMC12186753 (ACS pharmacology & translational science, 2025).

Protein sequences, listed by entry. Tags and fused reporters are not part of them. Residues count along the entry.
UniProt P00747, 97-580 limits assumed: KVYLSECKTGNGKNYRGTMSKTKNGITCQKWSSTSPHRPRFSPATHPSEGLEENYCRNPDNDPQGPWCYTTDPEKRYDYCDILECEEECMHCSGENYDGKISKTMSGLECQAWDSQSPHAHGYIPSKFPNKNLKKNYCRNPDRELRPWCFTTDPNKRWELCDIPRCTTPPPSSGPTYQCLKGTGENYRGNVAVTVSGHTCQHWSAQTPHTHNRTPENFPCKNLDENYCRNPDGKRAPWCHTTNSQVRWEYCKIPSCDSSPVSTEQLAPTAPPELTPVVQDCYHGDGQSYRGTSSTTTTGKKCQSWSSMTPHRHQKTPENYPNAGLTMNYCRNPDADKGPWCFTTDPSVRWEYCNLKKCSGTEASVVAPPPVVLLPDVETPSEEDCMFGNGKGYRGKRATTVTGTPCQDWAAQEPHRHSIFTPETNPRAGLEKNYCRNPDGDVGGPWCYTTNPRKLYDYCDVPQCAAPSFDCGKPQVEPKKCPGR
UniProt P00747, 581-810 limits assumed: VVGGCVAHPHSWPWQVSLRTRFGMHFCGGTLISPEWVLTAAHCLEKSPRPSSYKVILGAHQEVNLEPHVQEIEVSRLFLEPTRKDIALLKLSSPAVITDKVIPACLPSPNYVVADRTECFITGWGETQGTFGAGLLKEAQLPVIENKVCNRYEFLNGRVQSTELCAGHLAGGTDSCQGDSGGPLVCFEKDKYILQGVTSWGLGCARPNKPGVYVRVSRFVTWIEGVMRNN

Experiments:
[1] = target: T1, plasmin (Homo sapiens, UniProt P00747); test: Annular fibrin clot assay (FITC-tagged fibrin clot lysis by plasmin); format: biochemical
[2] = target: T1, plasmin; conditions: read-out: Plasmin Ki; S-2251, 42.5 nM human plasmin, Dixon plot; previously determined; cited from earlier work

N=C(N)c1ccccc1 [Benzamidine, reference compound]
IC50 [1]: 1140 µM
Ki [2]: 32 ± 3 µM
